Values of other authors as cited in article PMC7584369, “Di-bromo-Based Small-Molecule Inhibitors of the PD-1/PD-L1 Immune Checkpoint” (Journal of Medicinal Chemistry, 2020).

System: Jurkat PD-1 Effector Cells alone or in co-culture with CHO K-1 PD-L1 aAPCs
Conditions: Skalniak et al. (2017), Figure 2a; cited from earlier work

Cc1c(COc2cc(OCc3cccc(C#N)c3)c(CN3C[C@H](O)C[C@@H]3C(=O)O)cc2Cl)cccc1-c1ccc2c(c1)OCCO2 [BMS-1166, reference compound]
concentration that decreased the viability of the cells by 50%: 40 µM
